One series concerns p-STAT3Y705 in skin. Description: In vivo pharmacodynamy model: IL-6 induced Phospho-STAT3, topical. Also noted: species or system BALB/c ByJ Rj mice. The note with it: topical 1 mM, PG/EtOH 3/7.
The nature of series [1]: Human skin ex vivo: flux through skin and dermis concentration (Franz cells). In kind it is in vitro ADME. The note with it: PG/H2O cream 1 mg/mL, human skin. As to the method: Flux through skin and dermis concentration were measured during 6-24 h (ng/cm^2/h) after disposition of the test compound 2.7 mM in PG/H2O cream 1 mg/mL. Human dermatomed skin (frozen), 350-500 μm thick were used in diffusion cells system Franz cells 1.76 cm^2 maintained at 32±1° C. after equilibration. Skin integrity was confirmed by TEWL <20 g/m^2/h. 3 donors were used for each test. The compound was formulated in modified aqueous British pharmacopoeia cream pH6 PG 14% and applied 5 mg/cm^2 by weighing. Receptor fluid containing 4% BSA in PBS 10 mM was maintained under agitation and was sampled along with dermis sampled at 6 h and 24 h after exposure. 5 Strips were used to remove carefully the excess of formulation and were not dosed.

As to `N#CC[C@H](C1CCCC1)n1cc(-c2ncnc3[nH]ccc23)cn1` [Ruxolitinib, reference compound], the “PD/IL6 mouse top @1 mM % inh vs vehicle” value in the series with p-STAT3Y705 in skin was 60%. Moreover, the dermis concentration in series [1] was 1.9 µM.

Source of the values: patent US12583868B2, “JAK inhibitors and methods for synthesizing and using thereof” (GALDERMA HOLDING SA, priority 2020, dated 2026).
